Reference: PMC4778035

Protein sequences, listed by entry. Tags and fused reporters are not part of them. Residues count along the entry.
UniProt Q3UH99, 31-525: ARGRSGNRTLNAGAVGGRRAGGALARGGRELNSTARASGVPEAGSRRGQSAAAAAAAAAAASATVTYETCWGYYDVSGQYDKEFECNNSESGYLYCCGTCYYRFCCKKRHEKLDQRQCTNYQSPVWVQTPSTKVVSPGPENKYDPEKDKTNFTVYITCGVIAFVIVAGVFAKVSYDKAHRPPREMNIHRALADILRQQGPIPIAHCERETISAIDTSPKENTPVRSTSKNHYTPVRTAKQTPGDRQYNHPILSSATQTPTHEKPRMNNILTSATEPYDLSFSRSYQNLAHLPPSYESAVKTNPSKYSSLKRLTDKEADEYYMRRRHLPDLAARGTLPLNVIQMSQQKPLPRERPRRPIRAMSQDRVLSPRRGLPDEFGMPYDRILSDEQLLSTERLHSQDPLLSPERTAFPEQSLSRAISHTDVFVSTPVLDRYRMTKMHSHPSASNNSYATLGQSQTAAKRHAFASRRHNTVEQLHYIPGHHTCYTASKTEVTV
UniProt P31016, whole entry: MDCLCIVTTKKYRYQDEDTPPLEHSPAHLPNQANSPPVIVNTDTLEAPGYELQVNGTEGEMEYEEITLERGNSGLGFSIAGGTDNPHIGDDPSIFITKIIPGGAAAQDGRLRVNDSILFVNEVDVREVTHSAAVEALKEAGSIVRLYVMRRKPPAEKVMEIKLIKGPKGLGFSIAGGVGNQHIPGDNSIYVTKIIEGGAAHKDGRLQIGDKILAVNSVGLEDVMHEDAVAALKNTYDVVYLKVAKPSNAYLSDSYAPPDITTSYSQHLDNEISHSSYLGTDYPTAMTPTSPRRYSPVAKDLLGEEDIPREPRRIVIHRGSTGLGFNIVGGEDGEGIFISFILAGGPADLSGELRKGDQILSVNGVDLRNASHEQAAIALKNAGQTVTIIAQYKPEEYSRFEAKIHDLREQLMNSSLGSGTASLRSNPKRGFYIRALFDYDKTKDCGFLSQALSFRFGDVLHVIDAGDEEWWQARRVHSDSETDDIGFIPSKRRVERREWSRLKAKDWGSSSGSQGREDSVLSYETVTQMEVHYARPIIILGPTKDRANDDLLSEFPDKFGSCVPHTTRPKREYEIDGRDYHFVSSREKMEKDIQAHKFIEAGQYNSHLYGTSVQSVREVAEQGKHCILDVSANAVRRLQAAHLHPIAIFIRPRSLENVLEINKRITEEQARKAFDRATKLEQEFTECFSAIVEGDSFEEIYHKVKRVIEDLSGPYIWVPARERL

Biological target: Shisa6::mCherry (UniProt Q3UH99)
Assay: FRET or BRET; FRET by fluorescence lifetime imaging (FLIM) of eGFP in living cultured hippocampal neurons at 37 °C; donor PSD-95::eGFP, acceptor Shisa6::mCherry; control: PSD-95::eGFP only

lifetime of eGFP in dendritic spines (control 2.381 ns): 2.25 ns
lifetime of eGFP in the dendritic shaft (control 2.563 ns): 2.46 ns
Substance: PSD-95::eGFP (from UniProt P31016 1-724) (natural protein)
